The test addresses T1, proteinase (trypsin) (Bos taurus, UniProt P00760).
T1 sequence (P00760 24-246): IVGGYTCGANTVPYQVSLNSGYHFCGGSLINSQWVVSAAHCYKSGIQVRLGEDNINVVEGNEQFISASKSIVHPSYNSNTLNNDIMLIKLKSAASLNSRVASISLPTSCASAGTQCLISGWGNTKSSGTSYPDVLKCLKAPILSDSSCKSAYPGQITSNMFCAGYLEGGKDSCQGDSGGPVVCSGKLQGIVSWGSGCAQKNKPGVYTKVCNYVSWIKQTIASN
The test can be described thus: Proteinase inhibitory activity (anti-arthritic). It counts as biochemical. The following applies: inhibition at 100 µg/mL.

Structures are written as SMILES.

Turning to `O=C(O)Cc1ccccc1Nc1c(Cl)cccc1Cl` [Diclofenac Sodium], the “Proteinase (%)” value is on record as 50.82 ± 0.08 (Diclofenac Sodium) %.

(Values after article PMC12030678, “Investigations of In Vitro Anti-Acetylcholinesterase, Anti-Diabetic, Anti-Inflammatory, and Anti-Cancer Efficacy of Garden Cress (Lepidium sativum Linn.) Seed Extracts, as Well as In Vivo Biochemical and Hematological Assays” (Pharmaceutics, 2025).)
